Protein sequences, listed by entry. Tags and fused reporters are not part of them.
UniProt P18825, whole entry: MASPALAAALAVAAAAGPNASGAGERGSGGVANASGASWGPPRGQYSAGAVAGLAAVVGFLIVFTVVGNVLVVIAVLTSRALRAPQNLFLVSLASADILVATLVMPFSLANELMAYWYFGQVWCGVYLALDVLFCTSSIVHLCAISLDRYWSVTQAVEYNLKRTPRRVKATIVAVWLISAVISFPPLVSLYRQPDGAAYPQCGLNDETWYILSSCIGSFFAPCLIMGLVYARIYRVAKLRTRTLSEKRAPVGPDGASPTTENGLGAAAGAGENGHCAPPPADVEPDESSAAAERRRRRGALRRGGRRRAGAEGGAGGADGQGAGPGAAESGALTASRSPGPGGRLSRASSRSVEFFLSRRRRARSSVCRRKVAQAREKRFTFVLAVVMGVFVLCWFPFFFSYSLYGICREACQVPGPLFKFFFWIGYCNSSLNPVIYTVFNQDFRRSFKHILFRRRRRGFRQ

According to patent US20130079271A1, “REVERSED BIARYL SPIROAMINOOXAZOLINE ANALOGUES AS ALPHA2C ADRENERGIC RECEPTOR MODULATORS” (priority 2009, published 2013):

Experiments:
α2C receptor [1] = molecular target: T1, α2C receptor (Homo sapiens, UniProt P18825); test: Efficacy agonist activity (Emax, GTPγS assay) at α2C; conditions: by definition: efficacy at α2C <30% Emax (GTPγS assay) and Ki at α2C <500 nM
Method: Efficacy agonist activity values (Emax, GTPγS assay) for α2A and α2C were determined by following the general procedure detailed by Umland et. al (“Receptor reserve analysis of the human α2c-adrenoceptor using [^35S]GTPγS and cAMP functional assays” European Journal of Pharmacology 2001, 411, 211-221). For the purposes of the present invention, a compound is defined to be a specific or at least functionally selective agonist of the α2C receptor subtype if the compound's efficacy at the α2C receptor is ≧30% Emax (GTPγS assay) and its efficacy at the α2A receptor is ≦35% Emax (GTPγS assay). Additionally, for the purposes of this invention, a compound is defined to be an antagonist of the α2C receptor subtype if the compound's efficacy at the α2C receptor is <30% Emax (GTPγS assay) and the Ki at the α2C receptor subtype was <500 nM, preferentially <200 nM, and most preferentially <20 nM.

α2C receptor [2] = molecular target: T1, α2C receptor; test: Ki at the α2C receptor subtype (binding inhibition); conditions: read-out: Ki at the α2C receptor subtype

evaluated to be an antagonist of the α2C receptor subtype (α2C receptor [1]): antagonist
Ki (α2C receptor [2]): < 200 nM
SMILES: C[C@H]1N=C(N)O[C@@]12CCc1c(cccc1-c1cncnc1)C2
